{"sequences": {"note": "Sequences of proteins named here, by UniProt entry; tags and fusion partners are left off. A change or cut given only in a name is not applied to a line headed by its entry. Residues count along the entry.", "UniProt O75116, 92-354, species assumed": "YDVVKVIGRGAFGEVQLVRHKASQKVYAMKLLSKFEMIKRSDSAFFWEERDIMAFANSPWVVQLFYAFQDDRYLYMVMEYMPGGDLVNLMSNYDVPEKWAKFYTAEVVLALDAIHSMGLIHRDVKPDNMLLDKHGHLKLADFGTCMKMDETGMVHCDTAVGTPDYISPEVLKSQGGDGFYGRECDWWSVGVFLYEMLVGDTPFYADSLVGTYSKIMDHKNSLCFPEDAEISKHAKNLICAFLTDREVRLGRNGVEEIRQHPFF", "UniProt P43490": "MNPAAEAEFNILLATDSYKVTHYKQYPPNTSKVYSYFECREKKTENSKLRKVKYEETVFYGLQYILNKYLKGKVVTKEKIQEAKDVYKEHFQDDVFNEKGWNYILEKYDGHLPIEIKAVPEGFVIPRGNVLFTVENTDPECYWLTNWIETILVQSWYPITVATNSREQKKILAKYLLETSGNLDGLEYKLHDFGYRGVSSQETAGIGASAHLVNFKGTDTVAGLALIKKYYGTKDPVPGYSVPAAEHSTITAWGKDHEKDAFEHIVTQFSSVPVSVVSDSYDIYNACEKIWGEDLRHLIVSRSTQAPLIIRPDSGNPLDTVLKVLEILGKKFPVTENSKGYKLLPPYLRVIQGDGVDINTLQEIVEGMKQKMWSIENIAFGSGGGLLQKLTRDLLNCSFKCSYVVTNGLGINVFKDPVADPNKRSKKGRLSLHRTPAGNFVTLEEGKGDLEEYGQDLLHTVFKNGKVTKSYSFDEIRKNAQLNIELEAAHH"}, "source": "patent US9302989B2", "about": "(priority 2010, dated 2016)", "key": {"ROCK2": {"target": "ROCK2 (Homo sapiens (Human), UniProt O75116)", "conditions": "read-out: ROCK2 HTRF Binding Ki"}, "NAMPT": {"target": "NAMPT (Homo sapiens (Human), UniProt P43490)", "test": "biochemical"}, "[1]": {"tested_on": "collagen-induced arthritis", "conditions": "in vivo; cited from earlier work"}, "[2]": {"tested_on": "experimental autoimmune encephalomyelitis (EAE)", "conditions": "in vivo; cited from earlier work"}}, "note": "pIC50, pKi: −log10 of the molar value."}
{"smiles": "O=C(Nc1ccc(-c2n[nH]c(=O)c3ccccc23)cc1)N1Cc2ccc(CN3CCCC3)cc2C1", "note": "[Example 380, N-[4-(4-oxo-3,4-dihydrophthalazin-1-yl)phenyl]-5-(pyrrolidin-1-ylmethyl)-1,3-dihydro-2H-isoindole-2-carboxamide]", "values": [{"measurement": "pKi", "setting": "ROCK2", "result": 8.64}]}
{"smiles": "O=C(Nc1ccc(-c2n[nH]c(=O)c3ccccc23)cc1)N1Cc2ccccc2C1", "note": "[Example 374, N-[4-(4-oxo-3,4-dihydrophthalazin-1-yl)phenyl]-1,3-dihydro-2H-isoindole-2-carboxamide]", "values": [{"measurement": "pKi", "setting": "ROCK2", "result": 8.44}]}
{"smiles": "CN(C)Cc1ccc2c(c1)CN(C(=O)Nc1ccc(-c3c[nH]c(=O)c4ccccc34)cc1)C2", "note": "[Example 389, 5-[(dimethylamino)methyl]-N-[4-(1-oxo-1,2-dihydroisoquinolin-4-yl)phenyl]-1,3-dihydro-2H-isoindole-2-carboxamide]", "values": [{"measurement": "pKi", "setting": "ROCK2", "result": 8.76}]}
{"smiles": "O=C1NCc2c1cccc2-c1ccc(NC(=O)N2Cc3ccccc3C2)cc1", "note": "[Example 547, N-[4-(1-oxo-2,3-dihydro-1H-isoindol-4-yl)phenyl]-1,3-dihydro-2H-isoindole-2-carboxamide]", "values": [{"measurement": "pKi", "setting": "ROCK2", "result": 6.75}]}
{"smiles": "O=C(Nc1ccc(-c2n[nH]c(=O)c3ccccc23)cc1)N1Cc2ccc(CN3CC[C@H](F)C3)cc2C1", "note": "[Example 397, 5-{[(3S)-3-fluoropyrrolidin-1-yl]methyl}-N-[4-(4-oxo-3,4-dihydrophthalazin-1-yl)phenyl]-1,3-dihydro-2H-isoindole-2-carboxamide]", "values": [{"measurement": "pKi", "setting": "ROCK2", "result": 6.86}]}
{"smiles": "O=C(Nc1ccc(-c2n[nH]c(=O)c3cccn23)cc1)N1Cc2ccc(CN3CCCC3)cc2C1", "note": "[Example 400, N-[4-(1-oxo-1,2-dihydropyrrolo[1,2-d][1,2,4]triazin-4-yl)phenyl]-5-(pyrrolidin-1-ylmethyl)-1,3-dihydro-2H-isoindole-2-carboxamide]", "values": [{"measurement": "pKi", "setting": "ROCK2", "result": 7.60}]}
{"smiles": "O=C(Nc1ccc(-c2c[nH]c(=O)c3ccccc23)cc1)N1Cc2ccccc2C1", "note": "[Example 376, N-[4-(1-oxo-1,2-dihydroisoquinolin-4-yl)phenyl]-1,3-dihydro-2H-isoindole-2-carboxamide]", "values": [{"measurement": "pKi", "setting": "ROCK2", "result": 8.28}]}
{"smiles": "O=C(Nc1ccc(-c2c[nH]c(=O)c3ccccc23)cc1)N1Cc2ccc(CN3CCOCC3)cc2C1", "note": "[Example 381, 5-(morpholin-4-ylmethyl)-N-[4-(1-oxo-1,2-dihydroisoquinolin-4-yl)phenyl]-1,3-dihydro-2H-isoindole-2-carboxamide]", "values": [{"measurement": "pKi", "setting": "ROCK2", "result": 8.39}]}
{"smiles": "O=C(CC12CC3CC(CC(C3)C1)C2)N1CC(Oc2ccc(NC(=O)N3Cc4ccncc4C3)cc2)C1", "note": "[Example 1044]", "values": [{"measurement": "pIC50", "setting": "NAMPT", "result": 8.21}]}
{"smiles": "N#Cc1ccc2c(c1)CN(C(=O)Nc1ccc(-c3c[nH]c(=O)c4ccccc34)cc1)C2", "note": "[Example 384, 5-cyano-N-[4-(1-oxo-1,2-dihydroisoquinolin-4-yl)phenyl]-1,3-dihydro-2H-isoindole-2-carboxamide]", "values": [{"measurement": "pKi", "setting": "ROCK2", "result": 8.37}]}
{"smiles": "O=C(Nc1ccc(-c2cncc3ccccc23)cc1)N1Cc2ccccc2C1", "note": "[Example 375, N-[4-(isoquinolin-4-yl)phenyl]-1,3-dihydro-2H-isoindole-2-carboxamide]", "values": [{"measurement": "pKi", "setting": "ROCK2", "result": 5.39}]}
{"smiles": "O=C(NC1CC=C(c2n[nH]c(=O)c3ccccc23)CC1)N1Cc2ccccc2C1", "note": "(centres unmarked) [Example 551, N-[4-(4-oxo-3,4-dihydrophthalazin-1-yl)cyclohex-3-en-1-yl]-1,3-dihydro-2H-isoindole-2-carboxamide]", "values": [{"measurement": "pKi", "setting": "ROCK2", "result": 7.74}]}
{"smiles": "O=C(Nc1ccc(-c2n[nH]c(=O)c3c2CCCC3)cc1)N1Cc2ccccc2C1", "note": "[Example 377, N-[4-(4-oxo-3,4,5,6,7,8-hexahydrophthalazin-1-yl)phenyl]-1,3-dihydro-2H-isoindole-2-carboxamide]", "values": [{"measurement": "pKi", "setting": "ROCK2", "result": 7.71}]}
{"smiles": "CN1CCC(Oc2ccc3c(c2)CN(C(=O)Nc2ccc(-c4n[nH]c(=O)c5ccccc45)cc2)C3)CC1", "note": "[Example 395, 5-[(1-methylpiperidin-4-yl)oxy]-N-[4-(4-oxo-3,4-dihydrophthalazin-1-yl)phenyl]-1,3-dihydro-2H-isoindole-2-carboxamide]", "values": [{"measurement": "pKi", "setting": "ROCK2", "result": 7.49}]}
{"smiles": "CCN(CC)Cc1ccc2c(c1)CN(C(=O)Nc1ccc(-c3c[nH]c(=O)c4ccccc34)cc1)C2", "note": "[Example 390, 5-[(diethylamino)methyl]-N-[4-(1-oxo-1,2-dihydroisoquinolin-4-yl)phenyl]-1,3-dihydro-2H-isoindole-2-carboxamide]", "values": [{"measurement": "pKi", "setting": "ROCK2", "result": 8.61}]}
{"smiles": "O=C1Cc2ccccc2C(c2ccc(NC(=O)N3Cc4ccccc4C3)cc2)=NN1", "note": "[Example 386, N-[4-(4-oxo-4,5-dihydro-3H-2,3-benzodiazepin-1-yl)phenyl]-1,3-dihydro-2H-isoindole-2-carboxamide]", "values": [{"measurement": "pKi", "setting": "ROCK2", "result": 5.00}]}
{"smiles": "O=C(Nc1ccc(-c2n[nH]c(=O)c3ccccc23)cc1)N1Cc2ccc(CN3CCC3)cc2C1", "note": "[Example 398, 5-(azetidin-1-ylmethyl)-N-[4-(4-oxo-3,4-dihydrophthalazin-1-yl)phenyl]-1,3-dihydro-2H-isoindole-2-carboxamide]", "values": [{"measurement": "pKi", "setting": "ROCK2", "result": 8.66}]}
{"smiles": "O=C(NC1CC=C(c2c[nH]c(=O)c3ccccc23)CC1)N1Cc2ccccc2C1", "note": "(centres unmarked) [Example 550, N-[4-(1-oxo-1,2-dihydroisoquinolin-4-yl)cyclohex-3-en-1-yl]-1,3-dihydro-2H-isoindole-2-carboxamide]", "values": [{"measurement": "pKi", "setting": "ROCK2", "result": 7.81}]}
{"smiles": "O=C(Nc1ccc(-c2c[nH]c(=O)c3ccccc23)cc1)N1Cc2ccc(CN3CCCC3)cc2C1", "note": "[Example 387, N-[4-(1-oxo-1,2-dihydroisoquinolin-4-yl)phenyl]-5-(pyrrolidin-1-ylmethyl)-1,3-dihydro-2H-isoindole-2-carboxamide]", "values": [{"measurement": "pKi", "setting": "ROCK2", "result": 8.86}]}
{"smiles": "CN1CCN(Cc2ccc3c(c2)CN(C(=O)Nc2ccc(-c4n[nH]c(=O)c5ccccc45)cc2)C3)CC1", "note": "[Example 383, 5-[(4-methylpiperazin-1-yl)methyl]-N-[4-(4-oxo-3,4-dihydrophthalazin-1-yl)phenyl]-1,3-dihydro-2H-isoindole-2-carboxamide]", "values": [{"measurement": "pKi", "setting": "ROCK2", "result": 8.44}]}
{"smiles": "CN1CCN(Cc2ccc3c(c2)CN(C(=O)Nc2ccc(-c4c[nH]c(=O)c5ccccc45)cc2)C3)CC1", "note": "[Example 391, 5-[(4-methylpiperazin-1-yl)methyl]-N-[4-(1-oxo-1,2-dihydroisoquinolin-4-yl)phenyl]-1,3-dihydro-2H-isoindole-2-carboxamide]", "values": [{"measurement": "pKi", "setting": "ROCK2", "result": 9.31}]}
{"smiles": "O=C(Nc1ccc(-c2n[nH]c(=O)c3ccccc23)cc1)N1Cc2ccc(CN3CC[C@@H](F)C3)cc2C1", "note": "[Example 396, 5-{[(3R)-3-fluoropyrrolidin-1-yl]methyl}-N-[4-(4-oxo-3,4-dihydrophthalazin-1-yl)phenyl]-1,3-dihydro-2H-isoindole-2-carboxamide]", "values": [{"measurement": "pKi", "setting": "ROCK2", "result": 6.74}]}
{"smiles": "O=C(Nc1ccc(-c2n[nH]c(=O)c3cccc(C(F)(F)F)c23)cc1)N1Cc2ccccc2C1", "note": "[Example 388, N-{4-[4-oxo-8-(trifluoromethyl)-3,4-dihydrophthalazin-1-yl]phenyl}-1,3-dihydro-2H-isoindole-2-carboxamide]", "values": [{"measurement": "pKi", "setting": "ROCK2", "result": 7.95}]}
{"smiles": "O=C(Nc1ccc(-c2n[nH]c(=O)c3cccc(F)c23)cc1)N1Cc2ccccc2C1", "note": "[Example 378, N-[4-(8-fluoro-4-oxo-3,4-dihydrophthalazin-1-yl)phenyl]-1,3-dihydro-2H-isoindole-2-carboxamide]", "values": [{"measurement": "pKi", "setting": "ROCK2", "result": 8.63}]}
{"smiles": "COc1ccc2c(c1)CN(C(=O)Nc1ccc(-c3c[nH]c(=O)c4ccccc34)cc1)C2", "note": "[Example 382, 5-methoxy-N-[4-(1-oxo-1,2-dihydroisoquinolin-4-yl)phenyl]-1,3-dihydro-2H-isoindole-2-carboxamide]", "values": [{"measurement": "pKi", "setting": "ROCK2", "result": 8.21}]}
{"smiles": "O=C(NC1CC=C(c2n[nH]c(=O)c3ccccc23)CC1)N1Cc2ccc(CN3CCCC3)cc2C1", "note": "(centres unmarked) [Example 552, N-[4-(4-oxo-3,4-dihydrophthalazin-1-yl)cyclohex-3-en-1-yl]-5-(pyrrolidin-1-ylmethyl)-1,3-dihydro-2H-isoindole-2-carboxamide]", "values": [{"measurement": "pKi", "setting": "ROCK2", "result": 5.49}]}
{"smiles": "O=C(Nc1ccc(-c2n[nH]c(=O)c3ccccc23)cc1)N1Cc2cccnc2C1", "note": "[Example 549, N-[4-(4-oxo-3,4-dihydrophthalazin-1-yl)phenyl]-5,7-dihydro-6H-pyrrolo[3,4-b]pyridine-6-carboxamide]", "values": [{"measurement": "pKi", "setting": "ROCK2", "result": 8.51}]}
{"smiles": "O=C(Nc1ccc(-c2c[nH]c(=O)c3ccccc23)cc1)N1Cc2ccc(Cl)cc2C1", "note": "[Example 385, 5-chloro-N-[4-(1-oxo-1,2-dihydroisoquinolin-4-yl)phenyl]-1,3-dihydro-2H-isoindole-2-carboxamide]", "values": [{"measurement": "pKi", "setting": "ROCK2", "result": 8.19}]}
{"smiles": "O=C(Nc1ccc(-c2n[nH]c(=O)c3cccc(C(F)(F)F)c23)cc1)N1Cc2ccc(CN3CCCC3)cc2C1", "note": "[Example 394, N-{4-[4-oxo-8-(trifluoromethyl)-3,4-dihydrophthalazin-1-yl]phenyl}-5-(pyrrolidin-1-ylmethyl)-1,3-dihydro-2H-isoindole-2-carboxamide]", "values": [{"measurement": "pKi", "setting": "ROCK2", "result": 8.03}]}
{"smiles": "O=C(/C=C/c1cccnc1)NCCCCC1CCN(C(=O)c2ccccc2)CC1", "note": "[FK866]", "values": [{"measurement": "efficacy in animal models of arthritis", "setting": "[1]", "result": "efficacious"}, {"measurement": "manifestations of experimental autoimmune encephalomyelitis", "setting": "[2]", "result": "ameliorated the manifestations"}]}
{"smiles": "O=C(Nc1ccc(-c2n[nH]c(=O)c3ccccc23)cc1)N1Cc2ccncc2C1", "note": "[Example 548, N-[4-(4-oxo-3,4-dihydrophthalazin-1-yl)phenyl]-1,3-dihydro-2H-pyrrolo[3,4-c]pyridine-2-carboxamide]", "values": [{"measurement": "pKi", "setting": "ROCK2", "result": 7.85}]}
